Measurements from ChEMBL document CHEMBL1287777 (Bioorg Med Chem Lett, 2010).

Legend:
Carbonic anhydrase 1 = Carbonic anhydrase 1 (Homo sapiens, UniProt P00915); assay: Inhibition of full length human CA1 cytosolic isoform by stopped-flow CO2 hydration method
Carbonic anhydrase 9 = Carbonic anhydrase 9 (Homo sapiens, UniProt Q16790); assay: Inhibition of human recombinant CA9 catalytic domain by stopped-flow CO2 hydration method
Carbonic anhydrase 2 = Carbonic anhydrase 2 (Homo sapiens, UniProt P00918)

Row | Ki (Carbonic anhydrase 1) [µM] | Ki (Carbonic anhydrase 9) [µM] | Ki (Carbonic anhydrase 2) [µM] | SMILES
1 | > 100 | – | – | CC(=O)c1cc2ccc(=O)oc2cc1O
2 | – | > 0.1 | – | O=c1ccc2ccccc2o1 [COUMARIN]
3 | 58.4 | 0.482 | > 100 | O=c1ccc2ccc(O)cc2o1 [UMBELLIFERONE]
